From article PMC2765192 (Journal of medicinal chemistry, 2009)

Amino acid sequences for entries named in this document (tags omitted). Residues count along the entry.
UniProt Q14833, 33-912: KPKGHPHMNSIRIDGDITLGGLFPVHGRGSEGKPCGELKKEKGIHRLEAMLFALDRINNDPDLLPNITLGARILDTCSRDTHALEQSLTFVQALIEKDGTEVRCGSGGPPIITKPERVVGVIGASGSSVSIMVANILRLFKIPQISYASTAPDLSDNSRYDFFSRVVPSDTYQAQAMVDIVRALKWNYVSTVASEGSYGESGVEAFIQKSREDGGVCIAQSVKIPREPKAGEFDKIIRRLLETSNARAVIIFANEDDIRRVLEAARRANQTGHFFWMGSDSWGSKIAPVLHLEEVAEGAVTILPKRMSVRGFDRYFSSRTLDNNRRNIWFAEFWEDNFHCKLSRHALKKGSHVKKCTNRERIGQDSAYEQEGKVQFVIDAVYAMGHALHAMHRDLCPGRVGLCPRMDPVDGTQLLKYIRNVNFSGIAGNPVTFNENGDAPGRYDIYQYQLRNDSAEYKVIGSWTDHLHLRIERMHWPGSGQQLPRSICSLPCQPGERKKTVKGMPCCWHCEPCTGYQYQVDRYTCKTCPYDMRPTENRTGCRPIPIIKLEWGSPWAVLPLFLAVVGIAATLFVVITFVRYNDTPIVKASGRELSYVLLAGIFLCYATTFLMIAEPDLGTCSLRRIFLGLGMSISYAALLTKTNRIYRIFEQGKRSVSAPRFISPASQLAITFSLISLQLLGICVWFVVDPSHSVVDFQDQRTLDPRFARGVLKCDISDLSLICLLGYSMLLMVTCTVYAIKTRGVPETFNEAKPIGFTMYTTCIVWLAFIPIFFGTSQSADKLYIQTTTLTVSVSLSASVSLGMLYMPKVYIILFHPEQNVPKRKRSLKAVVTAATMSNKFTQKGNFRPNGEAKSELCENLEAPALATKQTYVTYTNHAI

Target: human mGluR4 (Homo sapiens, UniProt Q14833)
Test: Fold shift of glutamate concentration-response curve, human mGluR4/Gqi5 cells
Conditions: 30 •M compound, representative experiment in triplicate

COc1cc(NC(=O)c2ccccn2)ccc1Cl [Compound 9b]
shift of the glutamate concentration-response curve to the left: 33 fold
